Assay results: paper PMC6941357, “An in vitro toolbox to accelerate anti-malarial drug discovery and development” (Malaria Journal, 2020)

Amino acid sequences for entries named in this document (tags omitted).
UniProt P11712, whole entry: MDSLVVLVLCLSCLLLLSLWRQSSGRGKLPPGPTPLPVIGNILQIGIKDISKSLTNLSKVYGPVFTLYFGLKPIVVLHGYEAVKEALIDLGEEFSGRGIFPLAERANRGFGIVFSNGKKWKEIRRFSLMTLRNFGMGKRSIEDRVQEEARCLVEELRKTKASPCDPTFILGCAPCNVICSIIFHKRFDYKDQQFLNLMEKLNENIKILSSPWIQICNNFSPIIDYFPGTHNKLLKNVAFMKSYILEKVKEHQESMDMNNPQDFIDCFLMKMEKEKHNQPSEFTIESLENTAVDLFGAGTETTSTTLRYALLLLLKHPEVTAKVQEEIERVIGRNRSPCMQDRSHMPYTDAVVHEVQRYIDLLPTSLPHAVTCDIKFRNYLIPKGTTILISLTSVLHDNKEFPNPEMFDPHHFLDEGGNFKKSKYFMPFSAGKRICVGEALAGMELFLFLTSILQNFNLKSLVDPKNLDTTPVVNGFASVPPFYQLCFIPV
UniProt P33261, whole entry: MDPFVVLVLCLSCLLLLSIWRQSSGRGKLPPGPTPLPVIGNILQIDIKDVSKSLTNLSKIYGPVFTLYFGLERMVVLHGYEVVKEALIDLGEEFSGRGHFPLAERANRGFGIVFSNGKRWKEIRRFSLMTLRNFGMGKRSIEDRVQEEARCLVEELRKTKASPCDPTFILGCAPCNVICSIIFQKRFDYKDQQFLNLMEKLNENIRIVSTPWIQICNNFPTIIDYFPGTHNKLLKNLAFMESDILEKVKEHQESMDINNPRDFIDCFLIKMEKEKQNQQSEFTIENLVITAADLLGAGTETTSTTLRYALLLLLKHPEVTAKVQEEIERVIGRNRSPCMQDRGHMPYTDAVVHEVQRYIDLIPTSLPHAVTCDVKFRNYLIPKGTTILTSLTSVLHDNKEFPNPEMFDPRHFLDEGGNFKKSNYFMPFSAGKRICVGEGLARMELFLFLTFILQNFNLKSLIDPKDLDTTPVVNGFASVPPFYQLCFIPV
UniProt P05177, whole entry: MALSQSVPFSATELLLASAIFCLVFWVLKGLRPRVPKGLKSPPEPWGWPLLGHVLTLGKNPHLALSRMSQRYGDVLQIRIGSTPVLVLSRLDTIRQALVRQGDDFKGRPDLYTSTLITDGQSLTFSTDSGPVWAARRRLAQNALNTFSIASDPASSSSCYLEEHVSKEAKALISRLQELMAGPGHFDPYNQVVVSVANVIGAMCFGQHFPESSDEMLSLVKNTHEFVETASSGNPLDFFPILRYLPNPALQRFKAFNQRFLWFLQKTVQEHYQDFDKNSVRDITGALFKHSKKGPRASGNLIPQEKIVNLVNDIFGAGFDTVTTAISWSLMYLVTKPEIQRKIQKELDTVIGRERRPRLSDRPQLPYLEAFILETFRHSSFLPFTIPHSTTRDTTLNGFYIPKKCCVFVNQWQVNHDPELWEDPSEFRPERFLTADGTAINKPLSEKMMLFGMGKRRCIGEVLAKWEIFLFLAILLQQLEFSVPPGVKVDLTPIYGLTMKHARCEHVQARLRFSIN
UniProt P10635, whole entry: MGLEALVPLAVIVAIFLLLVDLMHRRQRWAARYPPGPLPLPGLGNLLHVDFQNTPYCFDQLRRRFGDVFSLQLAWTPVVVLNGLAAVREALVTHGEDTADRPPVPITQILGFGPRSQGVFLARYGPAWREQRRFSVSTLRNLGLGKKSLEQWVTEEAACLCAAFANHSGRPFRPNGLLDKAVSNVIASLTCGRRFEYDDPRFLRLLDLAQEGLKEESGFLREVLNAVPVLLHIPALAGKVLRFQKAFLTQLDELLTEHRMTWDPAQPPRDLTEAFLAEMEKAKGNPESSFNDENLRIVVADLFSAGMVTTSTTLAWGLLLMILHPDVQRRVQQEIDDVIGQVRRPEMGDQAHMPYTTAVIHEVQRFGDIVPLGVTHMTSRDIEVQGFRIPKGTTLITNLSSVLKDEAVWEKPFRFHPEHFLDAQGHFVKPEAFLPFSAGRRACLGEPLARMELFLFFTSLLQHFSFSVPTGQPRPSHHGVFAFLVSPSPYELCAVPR
UniProt P08684, whole entry: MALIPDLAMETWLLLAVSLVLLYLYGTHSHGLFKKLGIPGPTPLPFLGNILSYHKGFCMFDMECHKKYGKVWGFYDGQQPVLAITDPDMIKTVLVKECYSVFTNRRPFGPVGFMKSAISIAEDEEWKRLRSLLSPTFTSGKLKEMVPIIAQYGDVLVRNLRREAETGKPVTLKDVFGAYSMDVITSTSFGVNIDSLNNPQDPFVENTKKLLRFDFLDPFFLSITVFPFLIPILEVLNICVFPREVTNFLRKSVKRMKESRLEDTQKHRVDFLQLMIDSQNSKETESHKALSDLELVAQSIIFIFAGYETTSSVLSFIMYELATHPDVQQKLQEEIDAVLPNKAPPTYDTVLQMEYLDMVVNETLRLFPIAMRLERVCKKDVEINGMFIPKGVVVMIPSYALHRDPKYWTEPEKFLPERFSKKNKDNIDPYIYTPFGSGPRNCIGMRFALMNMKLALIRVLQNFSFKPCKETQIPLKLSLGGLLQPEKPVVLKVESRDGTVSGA

Legend:
CYP2C9 = CYP2C9 (Homo sapiens, UniProt P11712); assay: Cytochrome P450 inhibition in human liver microsomes
CYP2C19 = CYP2C19 (Homo sapiens, UniProt P33261); assay: as above
[1] = Bidirectional permeability across Caco-2 cell monolayers; details: human, Caco-2, pH 7.4
CYP1A2 = CYP1A2 (Homo sapiens, UniProt P05177); assay: Cytochrome P450 inhibition in human liver microsomes
CYP2D6 = CYP2D6 (Homo sapiens, UniProt P10635); assay: as above
CYP3A4 = CYP3A4 (Homo sapiens, UniProt P08684); assay: as above; details: for IC50: highest concentration tested 20 µM; for Ki: human liver microsomes

Row | SMILES | IC50 (CYP2C9) [µM] | IC50 (CYP2C19) [µM] | efflux ratio [1] | IC50 (CYP1A2) [µM] | Ki (CYP1A2) [nM] | IC50 (CYP2D6) [nM] | Ki (CYP2C9) [µM] | Ki (CYP2D6) [nM] | IC50 (CYP3A4; CYP3A4 (midaz) IC50, human liver microsomes, CYP3A4 (midaz)) [nM] | Ki (CYP3A4; CYP3A4 (midaz) Ki, CYP3A4 (midaz)) [nM] | IC50 (CYP3A4; CYP3A4 (test) IC50, human liver microsomes, CYP3A4 (test)) [nM] | Ki (CYP3A4; CYP3A4 (test) Ki, CYP3A4 (test)) [nM]
1 | CCc1nc(N)nc(N)c1-c1ccc(Cl)cc1 [Pyrimethamine] | > 20 | > 20 | – | – | – | – | – | – | – | – | – | –
2 | CC[C@H]1OC(=O)[C@H](C)[C@@H](O[C@H]2C[C@@](C)(OC)[C@@H](O)[C@H](C)O2)[C@H](C)[C@@H](O[C@@H]2O[C@H](C)C[C@H](N(C)C)[C@H]2O)[C@](C)(O)C[C@@H](C)CN(C)[C@H](C)[C@@H](O)[C@]1(C)O [Azithromycin] | – | – | 33 | – | – | – | – | – | – | – | – | –
3 | COc1cc(NC(C)CCCN)c2ncccc2c1 (stereo not drawn) [Primaquine] | > 20 | > 20 | – | < 0.25 | < 150 | > 20000 | – | – | – | – | – | –
4 | CC1(C)c2nc(-c3ccc(F)cc3)c(Nc3ccc(F)cc3)n2CCN1C(=O)CN [KAF156] | 19 | > 20 | – | > 20 | – | 1200 | 14 | 750 | 2500 | 1800 | 2700 | 1600
